Key:
rat P2X7 = biological target: T1, rat P2X7 (Rattus norvegicus, UniProt Q64663); assay: Ca2+ flux (FLIPR) in 1321N1 cells expressing recombinant rat P2X7 channel; settings: FLIPR (rat) IC50 (μM), 250 μM BzATP
T1 sequence (Q64663 1-595): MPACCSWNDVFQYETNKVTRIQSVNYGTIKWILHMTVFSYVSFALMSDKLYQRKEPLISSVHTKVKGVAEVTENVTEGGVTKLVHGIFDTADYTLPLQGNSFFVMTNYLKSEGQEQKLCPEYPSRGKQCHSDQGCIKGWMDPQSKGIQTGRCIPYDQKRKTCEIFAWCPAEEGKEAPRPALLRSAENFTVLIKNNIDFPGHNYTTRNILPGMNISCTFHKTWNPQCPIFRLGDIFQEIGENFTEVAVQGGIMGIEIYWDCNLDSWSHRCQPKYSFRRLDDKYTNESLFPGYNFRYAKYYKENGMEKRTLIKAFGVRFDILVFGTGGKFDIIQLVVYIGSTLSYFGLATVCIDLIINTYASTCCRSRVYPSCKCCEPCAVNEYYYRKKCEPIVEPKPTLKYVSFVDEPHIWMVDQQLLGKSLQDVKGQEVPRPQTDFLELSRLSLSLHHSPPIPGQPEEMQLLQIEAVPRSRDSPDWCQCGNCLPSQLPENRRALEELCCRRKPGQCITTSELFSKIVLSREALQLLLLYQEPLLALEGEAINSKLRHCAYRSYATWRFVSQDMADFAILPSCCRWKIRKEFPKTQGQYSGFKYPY

Protein sequences, listed by entry. Tags and fused reporters are not part of them. Lines headed by an entry give the natural chain unless they say otherwise; changes in a name come on top.
UniProt Q99572: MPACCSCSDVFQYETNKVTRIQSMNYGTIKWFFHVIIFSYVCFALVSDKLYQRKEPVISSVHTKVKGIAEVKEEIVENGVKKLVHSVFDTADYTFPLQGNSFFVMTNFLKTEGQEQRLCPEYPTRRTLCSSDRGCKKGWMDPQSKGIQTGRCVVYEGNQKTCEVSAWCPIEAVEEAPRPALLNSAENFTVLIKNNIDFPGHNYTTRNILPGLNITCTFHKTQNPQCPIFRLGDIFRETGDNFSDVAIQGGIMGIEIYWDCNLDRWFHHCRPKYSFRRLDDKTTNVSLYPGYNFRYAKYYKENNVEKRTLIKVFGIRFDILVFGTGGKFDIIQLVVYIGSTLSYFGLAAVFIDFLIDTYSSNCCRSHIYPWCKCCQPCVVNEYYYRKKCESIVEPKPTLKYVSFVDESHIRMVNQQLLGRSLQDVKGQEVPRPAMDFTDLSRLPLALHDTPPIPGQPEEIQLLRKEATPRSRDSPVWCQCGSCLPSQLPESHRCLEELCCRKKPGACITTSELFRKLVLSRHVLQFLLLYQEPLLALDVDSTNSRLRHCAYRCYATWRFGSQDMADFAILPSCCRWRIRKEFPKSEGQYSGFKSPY

P2X7 = P2X7 (Homo sapiens, UniProt Q99572); assay: Ca2+ flux (FLIPR) in 1321N1 cells expressing recombinant human P2X7 channel; settings: FLIPR (human) IC50 (μM), 250 μM BzATP

Structure (SMILES)	IC50 (rat P2X7)	IC50 (P2X7)
CC1c2nnc(-c3ccc(F)cc3)n2CCN1C(=O)c1cccc(C(F)(F)F)c1Cl (centres unmarked)	7.89 µM	–
C[C@H]1Cn2c(nnc2-c2ncc(F)cn2)CN1C(=O)c1cccc(C(F)(F)F)c1Cl [Example 74]	–	0.0049 µM

Reference: US12338243B2, “P2X7 modulators” (JANSSEN PHARMACEUTICA NV, priority 2014, dated 2025)
